From ChEMBL document CHEMBL1649231, “In vitro activities of panduratin A against clinical Staphylococcus strains” (2009)

System: Staphylococcus aureus
Assay: Antimicrobial activity against methicillin-resistant Staphylococcus aureus after 24 hrs by broth microdilution method
Type: functional
Method in brief: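 Clinical isolates came from blood, body fluids, genital secretions, pus or sputum, identified conventionally or by Vitek. MICs were run by CLSI M7-A6 broth microdilution in Mueller-Hinton broth with 5 × 10^5 CFU/ml inoculum. Agents were twofold serially diluted, starting from 10% DMSO. Drug-free and uninoculated controls were included. Plates were incubated aerobically at 37°C for 24 h; MIC is the lowest concentration giving no visible growth.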

GENTAMICIN
MIC: 0.5 µg/mL
